# Results reported in PubChem BioAssay AID485272 (The Scripps Research Institute Molecular Screening Center, 2010).
# By UniProt entry, the sequences of proteins in these tests, tags left out.
# UniProt Q9UM07, whole entry: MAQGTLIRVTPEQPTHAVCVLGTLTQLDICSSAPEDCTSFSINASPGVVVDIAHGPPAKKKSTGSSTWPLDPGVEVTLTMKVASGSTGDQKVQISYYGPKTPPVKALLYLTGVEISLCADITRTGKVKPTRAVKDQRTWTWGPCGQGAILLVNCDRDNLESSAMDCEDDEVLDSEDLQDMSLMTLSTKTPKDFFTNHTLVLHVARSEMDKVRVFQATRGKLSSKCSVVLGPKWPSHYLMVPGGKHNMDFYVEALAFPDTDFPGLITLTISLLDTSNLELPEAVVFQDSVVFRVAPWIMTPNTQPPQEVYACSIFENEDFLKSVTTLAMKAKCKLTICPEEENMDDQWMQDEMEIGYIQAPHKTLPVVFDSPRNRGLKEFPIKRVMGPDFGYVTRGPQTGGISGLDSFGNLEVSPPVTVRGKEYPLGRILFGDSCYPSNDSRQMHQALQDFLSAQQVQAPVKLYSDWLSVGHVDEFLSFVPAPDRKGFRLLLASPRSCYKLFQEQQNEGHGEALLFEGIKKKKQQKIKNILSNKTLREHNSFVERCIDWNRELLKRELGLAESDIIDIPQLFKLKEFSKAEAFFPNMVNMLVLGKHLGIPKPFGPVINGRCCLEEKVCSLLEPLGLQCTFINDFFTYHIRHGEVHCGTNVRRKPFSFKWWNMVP
# Only a part is listed here, and it is no random draw. Some salts and complexes are drawn in separate pieces, as the source files them; their charges need not balance. Calls of active or inactive are those of the source.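 How the source made its calls: active means percent inhibition above a cutoff equal to the mean of all tested compounds plus 3 SD (cut at about 15% in these data); inactive means the rest.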
# Molecular target: Protein-arginine deiminase type-4 (Homo sapiens) (UniProt Q9UM07)
# Test: human PAD4 inhibitors, primary screen, biochemical, fluorescence polarization, 1536-well format (AID 485272);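 further: 0% = PAD4 with RCA probe and DMSO and 100% = probe without PAD4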
# Conditions: recombinant PAD4, RCA probe fluorescence polarization; at 6.36 µM; stronger effect = higher value
row,Compound,inhibition
1,CP(=O)(Nc1ccccn1)Oc1ccccc1 (stereo unspecified),inactive: -3.15%
2,COc1ccccc1OP(C)(=O)Nc1ccc(C)cc1C (stereo unspecified),inactive: 4.1%
3,CCc1ccc(OP(C)(=O)O)cc1,inactive: -2.83%
4,COc1ccccc1OP(C)(=O)Nc1ccc(Br)cc1 (stereo unspecified),inactive: -5.46%
5,COc1ccc(OP(C)(=O)Nc2ccccn2)cc1 (stereo unspecified),inactive: -0.07%
6,CN(C)CCOC(=O)C(O)(c1ccccc1)C1CCCC1 (stereo unspecified),inactive: -0.13%
7,Cc1nc2ccc3ccccc3c2o1.O=[N+]([O-])c1cc([N+](=O)[O-])c(O)c([N+](=O)[O-])c1,inactive: -10.5%
8,CP(=O)(OCCOc1ccccc1)OCCOc1ccccc1,inactive: -4.44%
9,CP(=O)(Nc1ccc(Cl)cc1Cl)Oc1ccccc1 (stereo unspecified),inactive: -1.26%
10,Cc1cc(C)cc(OP(C)(=O)Nc2cccc(C(F)(F)F)c2)c1 (stereo unspecified),inactive: 0.05%
11,COc1ccccc1OP(C)(=O)Nc1ccc(C)c(C)c1 (stereo unspecified),inactive: -3.98%
12,COc1ccc(OP(C)(=O)Nc2ccccc2Br)cc1 (stereo unspecified),inactive: 1.05%
13,CCN(CC)CCCOC(=O)C(O)(c1ccccc1)C1CCCCC1 (stereo unspecified),inactive: -1.45%
14,CP(=O)(Nc1ccccc1)Oc1ccc(F)cc1 (stereo unspecified),inactive: -0.53%
15,O=[N+]([O-])c1cc([N+](=O)[O-])c(OC2CCCCC2O)c([N+](=O)[O-])c1 (stereo unspecified),inactive: -0.17%
16,CCCCCOc1ccc(NP(C)(=O)Oc2ccc(Cl)cc2Cl)cc1 (stereo unspecified),inactive: -0.75%

row,Compound,inhibition
1,CCOC(=O)c1ccc(NP(C)(=O)Oc2ccc(F)cc2)cc1 (stereo unspecified),inactive: 3.36%
2,COc1ccc(OP(C)(=O)Nc2ccc(SC(F)(F)F)cc2)cc1 (stereo unspecified),inactive: -0.42%
3,O=C(OC1CN2CCC1CC2)c1ccc([N+](=O)[O-])cc1 (stereo unspecified),inactive: -2.83%
4,O=C(OCCN1CCN(CCOCc2ccccc2)CC1)C(O)(c1ccccc1)c1ccccc1,inactive: -3.74%
5,COc1ccc2c(c1O)-c1c(O)c(OC)cc3c1[C@H](C2)[N+](C)(C)CC3.O=[N+]([O-])c1cc([N+](=O)[O-])c([O-])c([N+](=O)[O-])c1[O-],inactive: -3.57%
6,CP(=O)(Nc1ccccc1F)Oc1ccccc1 (stereo unspecified),inactive: 3.62%
7,CC(C)c1ccc(OP(C)(=O)Nc2ccc(SC(F)(F)F)cc2)cc1 (stereo unspecified),inactive: 2.01%
8,CP(=O)(Nc1ccc2c(c1)OCCO2)Oc1ccccc1 (stereo unspecified),inactive: 0.13%
9,Cc1ccccc1NP(C)(=O)Nc1ccccc1C,inactive: -0.06%
10,CP(=O)(Nc1ccc(SC(F)(F)F)cc1)Oc1ccc(F)cc1 (stereo unspecified),inactive: -1.59%
11,CCOP(C)(=S)SCC(=O)NC(C)(CC)C(=O)O (stereo unspecified),inactive: 0.37%
12,O=[N+]([O-])c1cc([N+](=O)[O-])c(NCC2CCS(=O)(=O)C2)c([N+](=O)[O-])c1 (stereo unspecified),inactive: -4.67%
13,COc1ccc(OP(C)(=O)Nc2cccc(Br)c2)cc1 (stereo unspecified),inactive: 3.42%
14,CN(C)CCOC(=O)C(O)(c1ccccc1)C1CCCCC1 (stereo unspecified),inactive: -2.76%
15,COc1ccc(NP(C)(=O)Oc2ccccc2OC)cc1 (stereo unspecified),inactive: 1.88%
